Test results as given in ChEMBL document CHEMBL5131543, “Studying Lipophilicity Trends of Phosphorus Compounds by 31P-NMR Spectroscopy: A Powerful Tool for the Design of P-Containing Drugs” (J Med Chem, 2022).

Tests used:
[1] = Octanol-water partition coefficient, logP of compound by shake flask method based 31P-NMR analysis
[2] = […]-water partition coefficient, logP of compound by shake flask method based 31P-NMR analysis; conditions: octanol/water
[3] = Basicity of hydrogen bond, pKHB of compound by IR spectroscopy; type: physicochemical

In the case of `CCOP(=O)(OCC)C(F)F`, the logP [1] is reported as 0.78.
In the case of `CCOP(=S)(OCC)OCC`, the logP [2] is reported as 2.71 and the pKHB [3] is reported as 0.715.
For `CCOP(=O)(OCC)C(F)(F)Br`, the logP [1] was 1.1 and the pKHB [3] was 1.64.
